{"source": "patent US9192560B2", "about": "“Stable composition comprising an anti-ageing compound and a solvent” (CHANEL PARFUMS BEAUTE, priority 2012, dated 2015)", "assay": "Diacetylresveratryl thioctate stabilization test in candidate solvents (solubility at t0 and a day later)", "data": [{"substance": "PPG-15 stearyl ether", "values": [{"measurement": "Solubility 1 D/AT", "setting": "diacetylresveratryl thioctate in the named solvent, a day later, ambient temperature", "value": "Precipitate"}, {"measurement": "Solubility t0/AT", "setting": "diacetylresveratryl thioctate in the named solvent, initial, ambient temperature", "value": "Insoluble"}, {"measurement": "Stability", "setting": "stabilization of diacetylresveratryl thioctate by the named solvent", "value": "No"}]}]}
